Earlier results in US8729026B2, “Method for inhibiting autophagy of motor neurons” (China Medical University, priority 2012, dated 2014).

Test system: SOD1-G93A transgenic mice
Conditions: Riluzole, from reference Amyotrophic Lateral Sclerosis. 2009; 10: 85-94; cited from earlier work

## Nc1nc2ccc(OC(F)(F)F)cc2s1 [Riluzole]
  survival of SOD1-G93A transgenic mice: 140 days
